Binding of CDR-mutated scFvs to a peptide of the spike HR2 region

From the AlphaSeq antibody data of Li et al. 2023 (doi:10.1038/s41467-023-39022-2), copy in the FLAb collection.

All variants were tested on one target, the spike HR2 peptide PDVDLGDISGINAS (SARS-CoV-2).

The variants keep the light chain, the linker and the frameworks of Ab-14 (scFv order VH, the linker GGGGSGGGGSGGGGS, VL).
VH: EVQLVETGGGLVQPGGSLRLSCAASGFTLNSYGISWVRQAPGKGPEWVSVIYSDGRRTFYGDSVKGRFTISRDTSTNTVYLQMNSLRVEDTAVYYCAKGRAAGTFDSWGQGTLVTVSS
VL: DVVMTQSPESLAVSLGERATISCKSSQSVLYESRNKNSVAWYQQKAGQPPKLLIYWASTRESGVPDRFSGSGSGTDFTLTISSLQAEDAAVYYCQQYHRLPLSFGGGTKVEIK

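Phage display of a naive human antibody library on the peptide gave the parent. These sequences belong to a second round, designed from the earlier measurements on random variants of the parent. Group labels follow the data file (Ctrl: baseline library sampled from a position-specific scoring matrix, with some repeated check sequences; Rand: our label for a block that the file lists under HC and that is probably the random mutants of the ten best first-round binders; GP: Gaussian process model; GPLM: also part of the Gaussian process libraries; HC: hill climbing; Gen: genetic algorithm; Gibbs: Gibbs sampling; a sequence that several methods proposed may carry one label only). The assay is AlphaSeq: two haploid yeast populations carry antibody and antigen on their surface. The frequency of each diploid, read from paired DNA barcodes, reflects how well the two displayed proteins bind. Scores were corrected for input abundance and mapped to Kd with protein pairs of known affinity run in the same pool. The assay was run in six technical replicates.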

Substitutions are numbered in sequence along the VH above, starting at 1 (not Kabat). This list holds designs with at most six substitutions. Kd is apparent (estimated from mating counts) and averaged on the log scale over replicates with a signal. Smaller is tighter. An entry "nd" has no value in the source: the pair was not observed among the diploids in any replicate. This suggests poor binding but is not conclusive. The authors averaged sequences with at least three values out of six and counted those with two or fewer as poor binders. A sequence measured in both rounds can read differently, since the two assays cover different ranges. The parent sequence was in this pool as ten entries: three were never detected, three once, and four in most replicates, with averages from 2.2 nM to 240 nM. As a blank, each scFv also met three strains without target: over all heavy chain designs, 1% of these pairings were detected, typically at 120 nM and seldom below 7.0 nM.

Variant T28Y+R56K+A101T [GPLM_Gen] gave 48 nM (3 of 6 replicates).
Variant S31Y+S53A+G61H [Ctrl] gave 470 pM (6 of 6 replicates).
Variant F59Y [Ctrl] gave 70 nM (2 of 6 replicates).
Variant S31K+S53A [Ctrl] gave 3.2 nM (6 of 6 replicates).
Variant T28A+S31E+G61Q [GP_Gibbs] gave 3.3 nM (6 of 6 replicates).
Variant T28S+S31N+S63W+A101T [GPLM_Gen] gave nd (0 of 6 replicates).
Variant T28R [Ctrl] gave nd (0 of 6 replicates).
Variant G26H+T28D+G61A+R100Q+A101T [GP_Gibbs] gave 1.2 nM (6 of 6 replicates).
Variant G26T+T58V [Ctrl] gave nd (0 of 6 replicates).
Variant T28D+G61L+R100Q+A101L [GPLM_HC] gave 5.0 nM (6 of 6 replicates).
Variant T28E+S53A+D106K [GPLM_HC] gave 220 nM (2 of 6 replicates).
Variant N30L+F59E+A101E+T104S [Ctrl] gave nd (0 of 6 replicates).
Variant T28D+G61A+S63M+A101Q [GP_Gen] gave 4.2 nM (6 of 6 replicates).
Variant G26K+T28D+R100Q [GP_Gen] gave 21 nM (1 of 6 replicates).
Variant G26K+T28S+R100S+A101T [GP_Gibbs] gave 25 nM (4 of 6 replicates).
Variant T28E+G61A+S63D+R100V+A101N [GP_Gibbs] gave 7.0 nM (6 of 6 replicates).
Variant T28D+S63Q+R100I+A101T [GP_Gen] gave 980 pM (6 of 6 replicates).
Variant T28S+S31E+R100Q+A101T+S107A [GP_Gen] gave 530 pM (6 of 6 replicates).
Variant T28S+G61I+S63T+R100N [GP_Gibbs] gave 1.8 nM (6 of 6 replicates).
Variant G61S+R100Q+A101G [GP_HC] gave 3.4 µM (1 of 6 replicates).
Variant T28E+S31E+A101H+S107T [GP_Gen] gave 3.7 nM (5 of 6 replicates).
Variant R56Y+G61S+D106V [Ctrl] gave nd (0 of 6 replicates).
Variant T28D+K65A+A101V [Ctrl] gave 4.0 nM (6 of 6 replicates).
Variant N30D+A101Q+D106I [GP_HC] gave 56 nM (6 of 6 replicates).
Variant T28S+S31C+G61S+R100E [GPLM_Gen] gave 29 nM (3 of 6 replicates).
Variant T28E+S35H+F59M+A101T [Ctrl] gave nd (0 of 6 replicates).
Variant T28E+F59A+A101N [GP_Gen] gave 2.5 nM (6 of 6 replicates).
Variant S31E+G103H [Ctrl] gave nd (0 of 6 replicates).
Variant T28Q+N30D+K65D+A102K+D106W [Ctrl] gave nd (0 of 6 replicates).
Variant T28W+S31E+G61H+S107L [GP_HC] gave 750 pM (6 of 6 replicates).
Variant G26K+T28G+G61A+A101T [GP_Gibbs] gave 100 nM (5 of 6 replicates).
Variant S31E+A101T+S107L [GPLM_Gen] gave 3.4 nM (6 of 6 replicates).
Variant S31Q+F59C+G61S+T104F [Rand] gave nd (0 of 6 replicates).
Variant T28Q+G61V+A101E+S107T [GP_Gibbs] gave 11 nM (6 of 6 replicates).
Variant T28D+G61H+R100Q+A101T [GP_Gen] gave 1.7 nM (6 of 6 replicates).
Variant T28D+R56W+G61S+A101T [GP_Gibbs] gave 1.0 nM (6 of 6 replicates).

Picked from the list: the 2 lowest averages where every replicate gave a value.

| changes | group | Kd (apparent) | seen in |
|---|---|---|---|
| S31Y+S53A+G61H | Ctrl | 470 pM | 6/6 |
| T28S+S31E+R100Q+A101T+S107A | GP_Gen | 530 pM | 6/6 |